From article PMC12616683, “In Vivo Atlas of Neuroprotective Cyclic Dipeptides Derived from Food Gelatin Using Peptidomics and Feature-Based Molecular Networking” (Journal of Agricultural and Food Chemistry, 2025)

Test: FBMN analysis of short peptides in small intestine contents and serum after oral DHG
Details: small intestine contents, C57 mice, peptides smaller than 690 Da

Peptide signal (feature intensity) in the small intestine, 30 min (30 min after oral DHG): 6.92E+05 | Peptide signal (feature intensity) in the small intestine, 60 min (60 min after oral DHG): 4.73E+05 | Peptide signal (feature intensity) in the small intestine, 120 min (120 min after oral DHG): 1.27E+06 | Peptide signal (feature intensity) in the small intestine, 240 min (240 min after oral DHG): 1.88E+06
SMILES: CC[C@H](C)[C@H](N)C(=O)N1CCC[C@H]1C(=O)N[C@H](C(=O)O)[C@@H](C)CC [Ile-Pro-Ile]
